The target in the assay is Human recombinant PTP1B (hPTP1B) (Homo sapiens, UniProt P18031). The assay can be described thus: Inhibition of tri-phosphorylated insulin receptor dodecaphosphopeptide dephosphorylation by hPTP1B (malachite green). Conditions: insulin receptor 1142-1153 triphosphopeptide substrate, pH 7.4, 37° C.

The chains behind the UniProt entries cited, without tags or fusion partners. Where a name states a change or a piece, a line headed by the entry shows the natural chain unless it says otherwise.
UniProt P18031: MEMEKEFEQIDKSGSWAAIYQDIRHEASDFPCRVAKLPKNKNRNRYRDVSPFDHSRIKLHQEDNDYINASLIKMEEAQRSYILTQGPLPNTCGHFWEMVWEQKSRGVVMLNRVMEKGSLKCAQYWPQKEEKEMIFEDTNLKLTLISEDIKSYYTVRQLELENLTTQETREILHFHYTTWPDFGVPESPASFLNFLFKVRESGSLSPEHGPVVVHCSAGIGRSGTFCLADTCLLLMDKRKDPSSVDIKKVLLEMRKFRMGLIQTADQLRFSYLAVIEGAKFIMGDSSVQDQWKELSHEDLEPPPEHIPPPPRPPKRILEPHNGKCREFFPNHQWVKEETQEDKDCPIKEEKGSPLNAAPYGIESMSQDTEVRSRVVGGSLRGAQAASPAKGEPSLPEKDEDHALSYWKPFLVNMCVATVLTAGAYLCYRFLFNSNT

pIC50: −log10 of the molar value.

Broadly, the pIC50 is the IC50 on a negative log10 scale, so that one unit is a factor of ten. For the substance Ammonium molybdate tetrahydrate, the pIC50 was 5.06.
